Earlier results, collected in patent US20010046957A1, “Method for treating hepatitis C” (priority 1999, published 2001).

System: HCV

Q: For PEG IFN-α2A conjugate, which sustained virological response (CHC patients with cirrhosis, phase III study (Heathcote J)) is on record?
A: The sustained virological response was 29%.

Q: And the “sustained reduction of the virus to undetectable levels” value (non cirrhotic patients with CHC, phase II study (Shiffman M))?
A: Its value is 36%.
